Assay results: BindingDB's records for US20250197396 (Lieber Institute, 2025)

Amino acid sequences for entries named in this document (tags omitted). A change or cut given only in a name is not applied to a line headed by its entry.
UniProt Q92551: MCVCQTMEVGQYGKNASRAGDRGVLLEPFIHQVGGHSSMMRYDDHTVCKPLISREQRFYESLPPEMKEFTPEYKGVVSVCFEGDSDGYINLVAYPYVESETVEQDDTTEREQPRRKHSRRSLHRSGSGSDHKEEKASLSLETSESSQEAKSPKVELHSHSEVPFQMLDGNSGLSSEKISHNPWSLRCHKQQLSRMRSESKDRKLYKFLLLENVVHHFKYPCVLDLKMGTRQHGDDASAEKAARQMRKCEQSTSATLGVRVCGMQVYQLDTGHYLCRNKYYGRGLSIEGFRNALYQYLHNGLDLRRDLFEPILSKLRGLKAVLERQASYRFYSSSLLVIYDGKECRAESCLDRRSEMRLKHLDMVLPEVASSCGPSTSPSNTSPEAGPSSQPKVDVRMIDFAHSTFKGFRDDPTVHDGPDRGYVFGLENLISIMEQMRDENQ

Molecular target: Inositol hexakisphosphate kinase 1 (Homo sapiens, UniProt Q92551)
Experiment: Not found
From the text: Not found

SMILES: O=C(O)c1ccc2c(c1)[nH]c(=O)n2C1CCN(Cc2ccc(Cl)cc2Cl)CC1
- IC50: 16500 nM

SMILES: O=C(O)c1ccc2[nH]c(=O)n(C3CCN(Cc4ccccc4Cl)CC3)c2c1
- IC50: 1650 nM

SMILES: O=C(O)c1ccc2[nH]c(=O)n(C3CCN(Cc4ccc(Cl)cc4Cl)CC3)c2c1
- IC50: 1650 nM
